MITF TRPM1 HTS: activators of MITF-driven TRPM1 promoter reporter, primary screen, cell-based, SK-MEL-5, luciferase, single point. SK-MEL-5 TRPM1-promoter luciferase, 24 h; % of positive control, neutral wells = 0. activation, % at 12.5 µM. actives 0.75% (n = 300,000). AID 588334, 2011;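 active means mean activation of at least 80% with every replicate also reaching 80%; inconclusive means mean reaches 80% but some replicate falls short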
UUG fidelity: yeast start codon fidelity modulation; activity score, % at 18.7 µM; actives 0.13% (n = 350,000); S. cerevisiae UUG-firefly luciferase reporter, luminescence/redox ratio; AID 602363;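 active means replicate mean at a twofold rise or more, about +100% in these data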;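 further: firefly luciferase made from a UUG start codon reports start codon fidelity; reporter light over untreated wells divided by growth signal over untreated wells; some hits fall short of that in this replicate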
PGC1a acetyl inh: inhibitors of PGC1a acetylation signal, primary screen, cell-based, U2OS, AlphaScreen, inhibitor mode. AlphaScreen anti-acetyl-lysine; with virally co-expressed GCN5 acetyltransferase. inhibition, % at 15.6 µM. actives 0.17% (n = 350,000). AID 651687, 2012;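 active means every replicate shows inhibition of at least 40%; inconclusive means mean inhibition at least 40% but some replicate below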
Wnt bcat act: Wnt/beta-catenin pathway activators, primary screen, cell-based, plate reader, single point; Wnt/beta-catenin reporter cell assay, activator; activation, % at 9.35 µM; actives 1.2% (n = 300,000); AID 743398, 2014; in the data active means activation above about 30%, passing the limit was not always enough; inconclusive means no clear call, values can overlap the other calls
miR122 inh: miR-122 Renilla sensor signal increase in Huh7, primary screen, miR-122 inhibitor project, cell-based, single point, plate reader; Huh7 miR-122 Renilla luciferase sensor, 48 h; neutral wells = 0, positive control = 100; activation (reporter increase), % at 12.5 µM; actives 0.3% (n = 340,000); AID 602342, 2012;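 active means mean replicate activation score at least 90 and every replicate individually at or above 90; inconclusive means only one of the two criteria met; inactive means neither criterion met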;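 further: higher luciferase means less miR-122 activity so hits act as miR-122 inhibitors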
MITF TRPM1 inh: inhibitors of MITF-dependent TRPM1 promoter reporter, primary screen, cell-based, SK-MEL-5, single point, luciferase. SK-MEL-5 TRPM1 promoter luciferase, 24 h. inhibition, % at 12.5 µM. actives 0.83% (n = 330,000);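 active means mean inhibition across replicates of 60% or more, whatever share of single replicates reaches that level; inconclusive means some that reach 60%, reason not given; inactive means mean inhibition across replicates below 60%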
A number is an active result. Compounds with a hit are over-represented: about 2.1% of the library has one in this group of screens.

Results for CCc1ccc(NC(=O)NC2CCCCCCC2)cc1 ?
MITF TRPM1 HTS: 95.4; UUG fidelity: inactive; Wnt bcat act: inactive; miR122 inh: inactive; MITF TRPM1 inh: inactive

Results for CCNC(=O)C[C@H]1CC[C@H]2[C@@H](COC[C@H](O)CN2C(=O)C2CC2)O1 ?
PGC1a acetyl inh: inactive; miR122 inh: inactive

What do the screens show for `COCC#Cc1cnc2c(c1)C(=O)N([C@@H](C)CO)C[C@H](C)[C@@H](CN(C)C(=O)Nc1ccccc1F)O2`?
UUG fidelity: inactive; PGC1a acetyl inh: inactive; miR122 inh: inactive

Results for Cn1c(N)c(C(=O)Nc2ccccc2F)sc1=S ?
UUG fidelity: inactive; PGC1a acetyl inh: inactive; Wnt bcat act: inactive; MITF TRPM1 inh: inactive

How did Cn1c(N)c(C(=O)Nc2ccc3ccccc3c2)sc1=S do in these assays?
MITF TRPM1 HTS: 106.8; UUG fidelity: inactive; PGC1a acetyl inh: inactive; miR122 inh: inactive; MITF TRPM1 inh: inactive

How did C[C@H]1CN([C@@H](C)CO)C(=O)Cc2cc(NC(=O)Cc3ccccc3)ccc2O[C@H]1CN(C)Cc1ccncc1 do in these assays?
UUG fidelity: inactive; PGC1a acetyl inh: inactive; miR122 inh: inactive

What do the screens show for `CC(=O)SC(C[N+](=O)[O-])c1cn(C(C)=O)c2ccccc12` (stereo not given)?
MITF TRPM1 HTS: inactive; PGC1a acetyl inh: inactive; miR122 inh: inactive; MITF TRPM1 inh: 105.8

How did CC(=O)n1cc(Nc2ccc([N+](=O)[O-])cc2)c2ccccc21 do in these assays?
MITF TRPM1 HTS: inactive; Wnt bcat act: inactive; MITF TRPM1 inh: inactive

What do the screens show for `CSc1nc2ccc(NC(=O)C3CCCO3)cc2s1` (stereo not given)?
MITF TRPM1 HTS: inconclusive; UUG fidelity: inactive; PGC1a acetyl inh: inactive; Wnt bcat act: 49.5; miR122 inh: inactive; MITF TRPM1 inh: inactive

How did CC[n+]1c(/C=C/c2c[nH]c3ccccc23)ccc2cc(C)ccc21 do in these assays?
MITF TRPM1 HTS: inactive; Wnt bcat act: inactive; MITF TRPM1 inh: 74.5

Results for Cc1ccc(C(=O)NC(C#N)=C(Cl)Cl)cc1 ?
Wnt bcat act: 77.1

What do the screens show for `Cc1ccc(C(=O)NCC#N)cc1`?
MITF TRPM1 HTS: inactive; Wnt bcat act: inactive; MITF TRPM1 inh: inactive

Results for C[C@H]1CN([C@@H](C)CO)C(=O)c2cc(NC(=O)CCN3CCOCC3)ccc2O[C@@H]1CN(C)Cc1ccc(C(=O)O)cc1 ?
UUG fidelity: inactive; PGC1a acetyl inh: inactive; miR122 inh: inactive

Results for Cc1cccc(-c2ccc([C@@H]3[C@@H](CO)N4CCCCN(C(=O)NC(C)C)C[C@@H]34)cc2)c1 ?
UUG fidelity: inactive; PGC1a acetyl inh: inactive; miR122 inh: inactive

Results for COc1ccc(S(=O)(=O)Nc2ccc3c(c2)C(=O)N([C@H](C)CO)C[C@H](C)[C@H](CN(C)Cc2ccncc2)OCCCC[C@H](C)O3)cc1 ?
UUG fidelity: inactive; PGC1a acetyl inh: inactive; miR122 inh: inactive

How did COc1cc(NS(=O)(=O)c2ccc(N/C=C(\C#N)c3nc4cc(Cl)ccc4o3)cc2)nc(OC)n1 do in these assays?
MITF TRPM1 HTS: inactive; UUG fidelity: inactive; PGC1a acetyl inh: inactive; Wnt bcat act: inactive; miR122 inh: inactive; MITF TRPM1 inh: 76.8

Results for O=C(N/N=C/c1sc(=O)n(-c2ccccc2)c1Cl)c1ccccc1 ?
MITF TRPM1 HTS: inactive; PGC1a acetyl inh: inactive; Wnt bcat act: 75.0; MITF TRPM1 inh: inactive

Results for C[C@H]1CCCCO[C@H](CN(C)S(=O)(=O)c2ccc(F)cc2)[C@@H](C)CN([C@@H](C)CO)C(=O)c2cc(NC(=O)CCC(F)(F)F)ccc2O1 ?
UUG fidelity: inactive; PGC1a acetyl inh: inactive; miR122 inh: inactive

What do the screens show for `Cc1cnc(NC(=O)CN2C(=O)C3CC=CCC3C2=O)s1` (stereo not given)?
UUG fidelity: inactive; miR122 inh: inactive; MITF TRPM1 inh: inactive

What do the screens show for `O=C(CN1C(=O)C2CC=CCC2C1=O)Nc1nccs1` (stereo not given)?
MITF TRPM1 HTS: inactive; PGC1a acetyl inh: 50.1; miR122 inh: inactive; MITF TRPM1 inh: inactive

Results for CCOC(=O)c1c(C)[nH]c(N=Nc2cccc(OC)c2)c1C ?
MITF TRPM1 HTS: 130.0; UUG fidelity: inactive; PGC1a acetyl inh: inactive; Wnt bcat act: 45.0; miR122 inh: inactive; MITF TRPM1 inh: inactive

Results for CCOC(=O)c1c(C)[nH]c(N=Nc2cccc(C)c2)c1C ?
MITF TRPM1 HTS: 102.9; UUG fidelity: inactive; PGC1a acetyl inh: inactive; miR122 inh: inactive; MITF TRPM1 inh: inactive

What do the screens show for `CCOC(=O)c1c(C)[nH]c(O)c1C=Nc1ccccc1`?
UUG fidelity: inactive; PGC1a acetyl inh: inactive; Wnt bcat act: inactive; miR122 inh: inactive; MITF TRPM1 inh: inactive

Results for CN(C)CCNc1cccc2sc3ccc(O)cc3c(=O)c12 ?
Wnt bcat act: inactive

What do the screens show for `Cc1ccc(NCCN(C)C)c2c(=O)c3cc(O)ccc3sc12`?
MITF TRPM1 HTS: inactive; PGC1a acetyl inh: inactive; Wnt bcat act: inactive; miR122 inh: inactive; MITF TRPM1 inh: 93.4

What do the screens show for `CO[C@H]1CN(C)C(=O)c2ccc(NC(=O)Nc3c(C)noc3C)cc2OC[C@H](C)N(C)C[C@@H]1C`?
PGC1a acetyl inh: inactive

How did O=C1/C(=C/c2cccc3ccccc23)CCCc2ccccc21 do in these assays?
MITF TRPM1 HTS: inactive; UUG fidelity: inactive; PGC1a acetyl inh: inactive; Wnt bcat act: 41.7; miR122 inh: inactive; MITF TRPM1 inh: inactive

How did O=C1C(=Cc2ccncc2)CCCc2ccccc21 do in these assays?
UUG fidelity: inactive; PGC1a acetyl inh: inactive; Wnt bcat act: inactive; miR122 inh: inactive

How did CC(C)c1ccc(NC(=O)CSc2nc3ccsc3c(=O)n2Cc2ccc(C(=O)O)cc2)cc1 do in these assays?
MITF TRPM1 HTS: inactive; UUG fidelity: inactive; PGC1a acetyl inh: 59.0; Wnt bcat act: inactive; miR122 inh: inactive; MITF TRPM1 inh: inactive

Results for C[C@H]1CN([C@@H](C)CO)C(=O)c2cccc(NS(=O)(=O)c3ccc(F)cc3)c2O[C@@H]1CN(C)S(=O)(=O)c1cn(C)cn1 ?
UUG fidelity: inactive; PGC1a acetyl inh: inactive; miR122 inh: inactive

Results for S=C(Nc1ccccc1Cl)NC1CCCCCC1 ?
MITF TRPM1 HTS: inactive; UUG fidelity: inactive; PGC1a acetyl inh: inactive; Wnt bcat act: inactive; miR122 inh: 149.2; MITF TRPM1 inh: inactive

How did S=C(Nc1ccc(Cl)c(Cl)c1)NC1CCCCC1 do in these assays?
MITF TRPM1 HTS: inactive; PGC1a acetyl inh: inactive; Wnt bcat act: inactive; miR122 inh: 159.2; MITF TRPM1 inh: inactive

What do the screens show for `Cc1ccccc1NC(=S)NC1CCCC1`?
MITF TRPM1 HTS: inactive; UUG fidelity: inactive; Wnt bcat act: inactive; miR122 inh: inactive; MITF TRPM1 inh: inactive

Results for C[C@H]1CN([C@@H](C)CO)C(=O)c2cc(C#CC3(O)CCCC3)cnc2O[C@H]1CN(C)Cc1ccccn1 ?
PGC1a acetyl inh: inactive; miR122 inh: inactive

Bioassay records (PubChem BioAssay)
